# Experimental data: patent publication US20260069596A1, “USE OF PLK1 INHIBITOR AS MONOTHERAPY AND IN COMBINATION WITH CETUXIMAB IN TREATING RAS WILD-TYPE COLORECTAL CANCER” (Cardiff Oncology, Inc., priority 2024, published 2026)
# Experiments:
# [1] = system: RAS^WT colorectal cancer patient derived xenograft (PDX) models; assay: Example 2: antitumor activity in RAS^WT colorectal cancer PDX models; type: in vivo, mice
# Method: Tumor volumes (TV) were measured twice a week, and % tumor volume change (TVC) from baseline was calculated as follows: (TVi/TV0−1)×100. Tumor stasis defined as TVC between 0 and 20%, and tumor regression as TVC less than 0% at last measurement. Results are presented as mean±SEM.
# Provided in this example are methods for use of PLK1 inhibitor as monotherapy or combination with EGFR inhibitor for treatment of cancer.
# [2] = system: RAS^WT CRC patient-derived xenograft (PDX) models; assay: Example 1: antitumor activity in RAS^WT CRC PDX models; type: in vivo, nude mice
# Method: Twenty RAS^WT CRC PDXs were selected and engrafted in nude mice. […] PDX models were chosen based on their sensitivity to cetuximab, resulting in a selection of 7 cetuximab-sensitive (CetuxS) and 13 cetuximab-resistant (CetuxR) PDXs, including 7 with intrinsic resistance and 6 with acquired-resistance. Tumor volume change from baseline (TVC) was calculated as 100%×(Vt−Vo)/Vo and tumor growth inhibition (TGI) as 100%×(TVCcontrol−TVCtreated)/TVCcontrol. Tumor regression was defined as TVCD18<0 and tumor stasis 0≤TVCD18<100.
substance,measurement,setting,value
cetuximab: monoclonal antibody targeting the epidermal growth factor receptor (EGFR) [reference compound],models resistant to treatment,[1]; 6 PDXs with acquired resistance to cetuximab,Four
same,response of models to treatment,"[1]; 7 PDXs sensitive to cetuximab, IP 20 mg/kg twice per week, 18-19 days",all models responded
same,PDXs with tumor regression,"[2]; 7 cetuximab-sensitive (CetuxS) PDXs, 20 mg/kg BIW, 18 days",all
same,median tumor growth inhibition (TGI),"[2]; cetuximab-resistant models (13), IQR 16-61",29%
